# Tests used:
# [1] = species: Homo sapiens; assay: Selectivity index, ratio of IC50 for CDK6/cyclin D3 (unknown origin) to IC50 for CDK2/cyclin A2 (unknown origin)
# [2] = species: Homo sapiens; assay: Selectivity index, ratio of IC50 for CDK1/cyclin B1 (unknown origin) to IC50 for CDK2/cyclin A2 (unknown origin)
# [3] = species: Homo sapiens; assay: Selectivity index, ratio of IC50 for CDK3/cyclin E1 (unknown origin) to IC50 for CDK2/cyclin A2 (unknown origin)
# [4] = species: Homo sapiens; assay: Selectivity index, ratio of IC50 for CDK4/cyclin D3 (unknown origin) to IC50 for CDK2/cyclin A2 (unknown origin)
# [5] = species: Homo sapiens; assay: Selectivity index, ratio of IC50 for CDK7/cyclin H/MAT1 (unknown origin) to IC50 for CDK2/cyclin A2 (unknown origin)
# [6] = species: Homo sapiens; assay: Selectivity index, ratio of IC50 for CDK9/cyclin T1 (unknown origin) to IC50 for CDK2/cyclin A2 (unknown origin)
# [7] = species: Homo sapiens; assay: Selectivity index, ratio of IC50 for CDK12/cyclin K (unknown origin) to IC50 for CDK2/cyclin A2 (unknown origin)
Ratio IC50 [1],Ratio IC50 [2],Ratio IC50 [3],Ratio IC50 [4],Ratio IC50 [5],Ratio IC50 [6],Ratio IC50 [7],Structure (SMILES)
> 10,17,2,> 10,> 10,> 10,> 10,NC(=O)c1ccc(-c2ccc(F)c(C(=O)Nc3c[nH]nc3C(=O)Nc3ccc(F)cc3)c2F)cn1
,8,,,,,,NC(=O)c1cccc(-c2ccc(F)c(C(=O)Nc3c[nH]nc3C(=O)Nc3ccc(F)cc3)c2F)c1
